For data set [1] the following is noted: for excretion rate: decay-correction to injection time.
For data set [2] the following is noted: final product solution.
For data set [3] the following is noted: final product solution. This is another data set of the same source.
For data set [4] the following is noted: room temperature.
Where [5] appears, read: ICR mice urine, about 85 min, HPLC.

Values joined by “and” are separate entries in the source; they are usually repeats but may differ in a detail not shown here. Equal entries are not always repeated. Where two headings read alike, the source gives them in different places.

On to ^18F-deoxy-thiamine, for which, in data set [1] (ICR mice (n = 3), about 85 min after injection, decay-correction, mean ± SEM), the “radioactivity in collected urine, of total injected radioactivity” value is 34.16 ± 3.84%. In data set [1] (setting [5]), the “RCP of renal excreted tracer” value amounted to 94.53 ± 0.81%. The “unknown trace substance ahead of the tracer in urine” value in data set [1] (setting [5]) came out at 3.30 ± 0.60 % in RCP. Also, the “share in urine metabolized to more polar compounds” value in data set [1] (ICR mice urine, after 85 min in vivo) was found to be 3.37%. Besides, the “percentage of intact tracer (prototype form) in urine” value in data set [1] (ICR mice urine, within 85 min after vein injection) is on record as 96.63%. In addition, the excretion rate was 35.99% in data set [1] (ICR mouse 1, 85 mins); 26.78% in data set [1] (ICR mouse 2, 85 mins); 39.70% in data set [1] (ICR mouse 3, 85 mins). Also, the “renal excreted radioactivity 85 mins after injection” value in data set [1] (ICR mouse 1, injected 7.74 MBq) was 2.79 MBq; in data set [1] (ICR mouse 2, injected 13.71 MBq) it was 3.67 MBq; in data set [1] (ICR mouse 3, injected 16.11 MBq) it was 6.39 MBq. The Endotoxin test entry in data set [2] is “Negative”. Besides, in data set [3], the Bacteria test entry is “Negative”. Also, the RCP in data set [4] (0 h after synthesis) is 97.68%; in data set [4] (2 h after synthesis) it was 96.89%; in data set [4] (4 h after synthesis), 96.11%; in data set [4] (6 h after synthesis) it was > 95% and 95.03%; in data set [4] (8 h after synthesis), 94.01%; in data set [4] (10 h after synthesis), > 93% and 93.38%.
